These are literature values, as cited in patent publication US20040235801A1, “Therapy for stroke” (priority 2001, published 2004).

The subject of one series is SOD1 mutant mice. Particulars: single therapy, without affecting the onset of disease; cited from earlier work.
A further series has as its system ALS patients. The settings on record: two controlled clinical trials; cited from earlier work.

As for `Nc1nc2ccc(OC(F)(F)F)cc2s1` [Riluzole], the increase of survival in the series with SOD1 mutant mice is 13 to 15 days. Also, the “increase of survival of ALS patients” value in the series with ALS patients is 3-6 months.
